Test [1] concerns the target T1, GST-full length LSF (LSF1-502) (human, UniProt Q12800 1-502).
T1 construct: Not in the methods' list of GST-LSF fragments; probably made as those (pGEX-5X-1, E. coli); also called LSF full length
T1 sequence (looked up): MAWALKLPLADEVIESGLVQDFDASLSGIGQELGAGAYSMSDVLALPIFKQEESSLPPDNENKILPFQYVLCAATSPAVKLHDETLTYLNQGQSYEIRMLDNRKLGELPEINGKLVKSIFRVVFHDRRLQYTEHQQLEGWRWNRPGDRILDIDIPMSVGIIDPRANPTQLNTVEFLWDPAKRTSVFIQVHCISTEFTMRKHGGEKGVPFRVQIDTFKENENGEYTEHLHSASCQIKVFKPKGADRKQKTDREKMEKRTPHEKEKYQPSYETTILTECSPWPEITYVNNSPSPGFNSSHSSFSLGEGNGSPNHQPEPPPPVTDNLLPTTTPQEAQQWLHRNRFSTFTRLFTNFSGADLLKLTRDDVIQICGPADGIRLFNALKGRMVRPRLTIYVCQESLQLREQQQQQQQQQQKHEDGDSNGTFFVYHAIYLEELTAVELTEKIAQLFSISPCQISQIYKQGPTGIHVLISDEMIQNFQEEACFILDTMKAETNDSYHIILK
Briefly: pull-down; as a4, in the presence of 2.5 uM FQI1. Conditions: both partners purified.

The target in test [2] is T2, GST-LSF (amino acids 380-502), carboxy-terminal domain (human, UniProt Q12800 380-502).
T2 construct: the methods list a fragment 383-503 instead; Cloned into pGEX-5X-1; also called LSF Ubiquitin domain; source: E. coli, captured on Glutathione Sepharose beads
T2 sequence (looked up): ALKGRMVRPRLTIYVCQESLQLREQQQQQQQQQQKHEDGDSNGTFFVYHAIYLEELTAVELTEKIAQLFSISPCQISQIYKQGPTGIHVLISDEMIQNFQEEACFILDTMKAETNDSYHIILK
Briefly: pull-down; as a4, in the presence of 2.5 uM FQI1. The note with it: both partners purified.

These results are taken from paper PMC5347793, “Transcription factor LSF-DNMT1 complex dissociation by FQI1 leads to aberrant DNA methylation and gene expression” (Oncotarget, 2016).

B1: purified full-length DNMT1 (recombinant, baculovirus expressed) (enzyme, human, UniProt P26358 1-1616, looked up)
chain: MPARTAPARVPTLAVPAISLPDDVRRRLKDLERDSLTEKECVKEKLNLLHEFLQTEIKNQLCDLETKLRKEELSEEGYLAKVKSLLNKDLSLENGAHAYNREVNGRLENGNQARSEARRVGMADANSPPKPLSKPRTPRRSKSDGEAKPEPSPSPRITRKSTRQTTITSHFAKGPAKRKPQEESERAKSDESIKEEDKDQDEKRRRVTSRERVARPLPAEEPERAKSGTRTEKEEERDEKEEKRLRSQTKEPTPKQKLKEEPDREARAGVQADEDEDGDEKDEKKHRSQPKDLAAKRRPEEKEPEKVNPQISDEKDEDEKEEKRRKTTPKEPTEKKMARAKTVMNSKTHPPKCIQCGQYLDDPDLKYGQHPPDAVDEPQMLTNEKLSIFDANESGFESYEALPQHKLTCFSVYCKHGHLCPIDTGLIEKNIELFFSGSAKPIYDDDPSLEGGVNGKNLGPINEWWITGFDGGEKALIGFSTSFAEYILMDPSPEYAPIFGLMQEKIYISKIVVEFLQSNSDSTYEDLINKIETTVPPSGLNLNRFTEDSLLRHAQFVVEQVESYDEAGDSDEQPIFLTPCMRDLIKLAGVTLGQRRAQARRQTIRHSTREKDRGPTKATTTKLVYQIFDTFFAEQIEKDDREDKENAFKRRRCGVCEVCQQPECGKCKACKDMVKFGGSGRSKQACQERRCPNMAMKEADDDEEVDDNIPEMPSPKKMHQGKKKKQNKNRISWVGEAVKTDGKKSYYKKVCIDAETLEVGDCVSVIPDDSSKPLYLARVTALWEDSSNGQMFHAHWFCAGTDTVLGATSDPLELFLVDECEDMQLSYIHSKVKVIYKAPSENWAMEGGMDPESLLEGDDGKTYFYQLWYDQDYARFESPPKTQPTEDNKFKFCVSCARLAEMRQKEIPRVLEQLEDLDSRVLYYSATKNGILYRVGDGVYLPPEAFTFNIKLSSPVKRPRKEPVDEDLYPEHYRKYSDYIKGSNLDAPEPYRIGRIKEIFCPKKSNGRPNETDIKIRVNKFYRPENTHKSTPASYHADINLLYWSDEEAVVDFKAVQGRCTVEYGEDLPECVQVYSMGGPNRFYFLEAYNAKSKSFEDPPNHARSPGNKGKGKGKGKGKPKSQACEPSEPEIEIKLPKLRTLDVFSGCGGLSEGFHQAGISDTLWAIEMWDPAAQAFRLNNPGSTVFTEDCNILLKLVMAGETTNSRGQRLPQKGDVEMLCGGPPCQGFSGMNRFNSRTYSKFKNSLVVSFLSYCDYYRPRFFLLENVRNFVSFKRSMVLKLTLRCLVRMGYQCTFGVLQAGQYGVAQTRRRAIILAAAPGEKLPLFPEPLHVFAPRACQLSVVVDDKKFVSNITRLSSGPFRTITVRDTMSDLPEVRNGASALEISYNGEPQSWFQRQLRGAQYQPILRDHICKDMSALVAARMRHIPLAPGSDWRDLPNIEVRLSDGTMARKLRYTHHDRKNGRSSSGALRGVCSCVEAGKACDPAARQFNTLIPWCLPHTGNRHNHWAGLYGRLEWDGFFSTTVTNPEPMGKQGRVLHPEQHRVVSVRECARSQGFPDTYRLFGNILDKHRQVGNAVPPPLAKAIGLEIKLCMLAKARESASAKIKEEEAAKD
notes: DNMT1, human, full length; source: recombinant baculovirus expressed, purified
In the case of B1, the “fold reduction of binding with FQI1 against no FQI1” value in test [1] and in test [2] was 2 fold in each case.
